Measurements: BindingDB's records for 27966945

Amino acid sequences for entries named in this document (tags omitted). Residues count along the entry.
UniProt P23415, 29-457 limits assumed: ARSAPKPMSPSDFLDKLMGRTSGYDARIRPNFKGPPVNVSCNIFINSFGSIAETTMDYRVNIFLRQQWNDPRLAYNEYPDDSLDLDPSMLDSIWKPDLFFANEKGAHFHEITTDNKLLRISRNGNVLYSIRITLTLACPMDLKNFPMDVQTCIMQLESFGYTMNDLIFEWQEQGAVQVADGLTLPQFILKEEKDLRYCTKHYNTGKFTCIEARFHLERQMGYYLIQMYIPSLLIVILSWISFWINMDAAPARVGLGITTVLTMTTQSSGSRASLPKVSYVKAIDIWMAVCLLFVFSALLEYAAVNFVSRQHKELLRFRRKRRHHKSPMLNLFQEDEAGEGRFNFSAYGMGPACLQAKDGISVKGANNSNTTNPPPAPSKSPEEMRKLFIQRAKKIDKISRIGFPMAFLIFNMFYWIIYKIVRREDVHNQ
UniProt P48167, 23-497 limits assumed: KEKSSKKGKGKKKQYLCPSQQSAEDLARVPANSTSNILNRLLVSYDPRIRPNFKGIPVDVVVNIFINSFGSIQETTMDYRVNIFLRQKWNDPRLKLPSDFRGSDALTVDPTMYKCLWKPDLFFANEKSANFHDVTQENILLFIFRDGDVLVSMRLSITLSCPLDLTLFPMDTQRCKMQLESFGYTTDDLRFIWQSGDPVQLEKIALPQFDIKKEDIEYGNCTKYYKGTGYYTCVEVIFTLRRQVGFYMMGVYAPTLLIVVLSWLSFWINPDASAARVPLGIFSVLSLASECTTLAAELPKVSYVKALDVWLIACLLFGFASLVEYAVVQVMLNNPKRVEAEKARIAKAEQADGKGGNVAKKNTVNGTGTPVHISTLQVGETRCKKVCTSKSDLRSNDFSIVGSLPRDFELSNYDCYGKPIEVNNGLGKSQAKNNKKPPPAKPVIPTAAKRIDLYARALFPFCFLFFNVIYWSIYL

Experiments:
[1] = biological target: Glycine receptor subunit alpha-1 (Homo sapiens, UniProt P23415); test: Antagonist activity at recombinant human glycine receptor alpha 1 expressed in human tsA201 cells assessed as inhibition of glycine-induced receptor activation after 30 mins by FLIPR membrane potential blue assay
[2] = biological target: Glycine receptor subunit alpha-1/beta (Homo sapiens, UniProt P23415+P48167); test: Antagonist activity at recombinant human glycine receptor alpha 1 beta expressed in human tsA201 cells assessed as inhibition of glycine-induced receptor activation after 30 mins by FLIPR membrane potential blue assay

O=C1/C(=N/O)[C@@H]2OCC=C3CN4CC[C@]56c7ccccc7N1[C@H]5[C@H]2[C@H]3C[C@H]46
IC50 [1]: 98 nM | IC50 [2]: 214 nM
